In PMC5598764:
Like-named read-outs stand apart in the source and are kept apart here.

Tests used:
Assay in all cases: stopped-flow fluorescence
[1] = molecular target: Porcine skeletal actin, pyrene-labeled (porcine) (UniProt P68137)
[2] = molecular target: Porcine skeletal actin, pyrene-labeled (porcine) (UniProt P68137); remark: listed apart in the source
[3] = molecular target: Porcine skeletal actin, pyrene-labeled (porcine) (UniProt P68137); remark: listed apart in the source

Substance	Kd [1]	Kd [2]	Kd [3]	kon [1]	kon [2]	kon [3]
myosin_c-MyBPC complex (porcine cardiac myosin with unphosphorylated porcine c-MyBPC), P79293 1-1935	11.5 µM	6.79 µM	16.4 µM			
myosin_c-MyBPC.PKA complex (porcine cardiac myosin with PKA-phosphorylated porcine c-MyBPC), P79293 1-1935				0.33 M⁻¹ s⁻¹	0.33 M⁻¹ s⁻¹	0.32 M⁻¹ s⁻¹
